Like-named read-outs stand apart in the source and are kept apart here.
How the values were obtained:
Type in all cases: cell-based, human
[1] = tested on: OE33 esophageal carcinoma cells; test: Cell growth inhibition (CellTiter-Glo), OE33; details: for IC50: 5 day treatment, read-out: IC50 cell growth inhibition, single agent
Description: (§1) Esophageal carcinoma cell line OE33 was purchased from ECACC European Collection of Cell Cultures (UK). Breast cancer cell line JIMT-1 and gastric carcinoma cell line MKN-45 were purchased from Deutsche Sammlung von Mikroorganismen and Zellkulturen GmbH (Germany); KPL-4, a human breast cancer cell line was kindly provided by Prof. J Kurebayashi (Kawasaki Medical School, Kurashiki, Japan). […] The LICR-LON-HN5 head and neck carcinoma cell line (HN5) was a gift from the Institute of Cancer Research, Surrey, U.K. HN5C12 was developed by single-cell cloning of HN5 followed by exposure to increasing concentrations of lapatinib. […] Cell growth inhibition was determined via CellTiter-Glo cell viability assays. […] BT474-J4 and HN5C12 were washed with PBS and plated in their culture media without lapatinib. […] ATP levels were determined by adding Cell Titer Glo0 (Promega), incubating for 20 minutes then the luminescent signal was read on the SpectraMax M5 plate with a 0.5 second integration time. Cell growth was calculated relative to vehicle (DMSO) treated control wells. […] y=([…]) where A is the minimum response (ymin), B is the maximum response (ymax), c is the inflection point of the curve (EC50), d is the Hill coefficient, and x is the log10 compound concentration (moles/L). CI values were calculated with the interpolated IC50 values and the mutually non-exclusive equation derived by Chou and […](a)+Db/IC50(b)+(Da×Db)/(IC50(a)×IC50(b)) where IC50(a) is the IC50 of the inhibitor A; IC50(b) is the IC50 for the inhibitor B; […] Excess Over Highest Single Agent (EOHSA) is defined as a statistically significant improvement in the combination compared to the component monotherapies. […] See Borisy et al. (2003) or Hung et al. (1993) for examples and discussion. […] EOHSA at each dose was calculated as the minimum difference in average % inhibition between the combination and each monotherapy, from the appropriate ANOVA contrast. […] The p-values for both synergy and antagonism were calculated using this adjustment.

[2] = tested on: N87 gastric carcinoma cells; test: Cell growth inhibition (CellTiter-Glo), N87; details: for IC50: 5 day treatment, read-out: IC50 cell growth inhibition, single agent
Description: as §1

[3] = tested on: BT474-J4 lapatinib resistant breast carcinoma cells; test: Cell growth inhibition (CellTiter-Glo), BT474-J4; details: BT474-J4, 5 days of treatment
Description: Esophageal carcinoma cell line OE33 was purchased from ECACC European Collection of Cell Cultures (UK). Breast cancer cell line JIMT-1 and gastric carcinoma cell line MKN-45 were purchased from Deutsche Sammlung von Mikroorganismen and Zellkulturen GmbH (Germany); KPL-4, a human breast cancer cell line was kindly provided by Prof. J Kurebayashi (Kawasaki Medical School, Kurashiki, Japan). […] The LICR-LON-HN5 head and neck carcinoma cell line (HN5) was a gift from the Institute of Cancer Research, Surrey, U.K. HN5C12 was developed by single-cell cloning of HN5 followed by exposure to increasing concentrations of lapatinib. […] Cell growth inhibition was determined via CellTiter-Glo cell viability assays. […] ATP levels were determined by adding Cell Titer Glo0 (Promega), incubating for 20 minutes then the luminescent signal was read on the SpectraMax M5 plate with a 0.5 second integration time. Cell growth was calculated relative to vehicle (DMSO) treated control wells. […] CI values were calculated with the interpolated IC50 values and the mutually non-exclusive equation derived by Chou and […](a)+Db/IC50(b)+(Da×Db)/(IC50(a)×IC50(b)) where IC50(a) is the IC50 of the inhibitor A; IC50(b) is the IC50 for the inhibitor B; […] […] EOHSA at each dose was calculated as the minimum difference in average % inhibition between the combination and each monotherapy, from the appropriate ANOVA contrast. […]

[4] = tested on: BT474 breast carcinoma cells; test: Cell growth inhibition (CellTiter-Glo), BT474; details: BT474, with HGF, 5 days of treatment (FIG. 7)
Description: Esophageal carcinoma cell line OE33 was purchased from ECACC European Collection of Cell Cultures (UK). Breast cancer cell line JIMT-1 and gastric carcinoma cell line MKN-45 were purchased from Deutsche Sammlung von Mikroorganismen and Zellkulturen GmbH (Germany); KPL-4, a human breast cancer cell line was kindly provided by Prof. J Kurebayashi (Kawasaki Medical School, Kurashiki, Japan). […] The LICR-LON-HN5 head and neck carcinoma cell line (HN5) was a gift from the Institute of Cancer Research, Surrey, U.K. HN5C12 was developed by single-cell cloning of HN5 followed by exposure to increasing concentrations of lapatinib. […] Cell growth inhibition was determined via CellTiter-Glo cell viability assays. […] BT474-J4 and HN5C12 were washed with PBS and plated in their culture media without lapatinib. […] ATP levels were determined by adding Cell Titer Glo0 (Promega), incubating for 20 minutes then the luminescent signal was read on the SpectraMax M5 plate with a 0.5 second integration time. Cell growth was calculated relative to vehicle (DMSO) treated control wells. […] EOHSA at each dose was calculated as the minimum difference in average % inhibition between the combination and each monotherapy, from the appropriate ANOVA contrast. […] The p-values for both synergy and antagonism were calculated using this adjustment.

What does the source list for “Trastuzumab: humanized monoclonal antibody which binds to the extracellular segment of the HER2 receptor and inhibits HER2 signaling”?
cell growth inhibition ([1]; OE-33, 5 days of treatment): no significant inhibition; IC50 ([1]; eso_OE33, +HGF): > 687 nM; IC50 ([1]; eso_OE33, −HGF): > 687 nM; cell growth inhibition ([2]; N87, 5 days of treatment): no significant inhibition; IC50 ([2]; gastric_N87, +HGF): > 687 nM; IC50 ([2]; gastric_N87, −HGF): > 687 nM; cell growth inhibition [3]: no significant inhibition; cell growth inhibition [4]: 35%

Reference: patent US20130150363A1, “Method of Treating Cancer Using a cMET and AXL Inhibitor and an ErbB Inhibitor” (GlaxoSmithKline, priority 2008, published 2013)
